Assay results from PMC6195595 (2018).

Columns and labels:
[1] = target: Kj12B-CDDshort E1567R peptide (Xenorhabdus stockiae KJ12.1, E1567R (stands in the printed letters)); experiment: ITC
[2] = target: Kj12B-CDDshort E1567A peptide (Xenorhabdus stockiae KJ12.1, E1567A (stands in the printed letters)); experiment: ITC

B1: Kj12C-^NDD (N-terminal docking domain of Kj12C) (domain or fragment)
chain: GIDAAQIVDEALEQGITLFVVNNRLQYETSRDSIPTELLNKWKQHKQELIDFLNQLDSEEQTK
Kd [1]: 64 µM | Kd [2]: 24 µM
